Results taken from paper PMC5177531 (ACS chemical neuroscience, 2016).

Sequences of proteins named here, by UniProt entry; tags and fusion partners are left off. Residues count along the entry.
UniProt P42866, 99-386 limits assumed: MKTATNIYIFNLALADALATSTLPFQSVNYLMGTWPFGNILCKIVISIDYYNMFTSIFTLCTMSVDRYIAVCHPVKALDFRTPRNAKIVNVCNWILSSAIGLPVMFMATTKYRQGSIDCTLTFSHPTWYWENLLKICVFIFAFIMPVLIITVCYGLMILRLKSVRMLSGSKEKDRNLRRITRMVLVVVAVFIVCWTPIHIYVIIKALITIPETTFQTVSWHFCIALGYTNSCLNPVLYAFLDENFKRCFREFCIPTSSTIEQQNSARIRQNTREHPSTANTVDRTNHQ
UniProt P42866, whole entry: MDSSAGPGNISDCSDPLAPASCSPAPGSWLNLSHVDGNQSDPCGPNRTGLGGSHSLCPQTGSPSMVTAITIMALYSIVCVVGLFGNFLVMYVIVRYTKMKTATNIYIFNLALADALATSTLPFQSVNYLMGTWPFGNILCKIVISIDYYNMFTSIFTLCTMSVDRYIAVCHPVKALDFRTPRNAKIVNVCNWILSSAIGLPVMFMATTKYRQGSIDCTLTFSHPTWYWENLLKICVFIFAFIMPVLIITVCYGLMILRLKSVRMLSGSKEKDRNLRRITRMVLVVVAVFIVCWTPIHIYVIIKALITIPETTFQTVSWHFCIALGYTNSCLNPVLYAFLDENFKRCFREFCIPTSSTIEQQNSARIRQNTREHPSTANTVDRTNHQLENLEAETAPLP
UniProt P32300, whole entry: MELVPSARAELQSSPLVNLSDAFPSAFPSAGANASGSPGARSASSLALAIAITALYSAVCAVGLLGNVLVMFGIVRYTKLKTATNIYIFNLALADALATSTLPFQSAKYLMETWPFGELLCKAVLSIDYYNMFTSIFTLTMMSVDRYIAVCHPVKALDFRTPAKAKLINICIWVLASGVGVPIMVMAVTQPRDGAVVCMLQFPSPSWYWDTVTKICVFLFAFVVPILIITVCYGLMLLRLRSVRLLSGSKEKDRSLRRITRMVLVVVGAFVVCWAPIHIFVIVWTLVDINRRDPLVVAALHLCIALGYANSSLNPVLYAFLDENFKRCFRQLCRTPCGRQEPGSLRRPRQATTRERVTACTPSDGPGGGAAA

Tests used:
6TM/E11 = 6TM/E11 (Mus musculus, UniProt P42866); assay: Competition binding versus 125I-IBNtxA at the 6TM-containing
[1] = target: 125I-IDAPP binding sites in C57/Bl6 brain homogenates (Mus musculus, UniProt P42866)
mDOR-1 = mDOR-1 (Mus musculus, UniProt P32300); assay: Competition binding versus 125I-IBNtxA in mDOR-CHO membranes
MOR-1 variants (Oprm1) = conditions: mouse, in vivo; cited from earlier work

Compound CC[C@H](C)[C@H](NC(=O)[C@H](Cc1ccccc1)NC(=O)[C@H](Cc1ccccc1)NC(=O)[C@@H](C)NC(=O)[C@@H](N)Cc1c(C)cc(O)cc1C)C(N)=O [DAPPI, Dmt-D-Ala-Phe-Phe-Ile-NH2] has a Ki (6TM/E11) of 45 ± 11 nM.
For CCC(=O)C(CC(C)N(C)C)(c1ccccc1)c1ccccc1 (stereo not shown) [Methadone], the “Hill Slope” value [1] was −0.7 ± 0.1.
CC(C)[C@H](NC(=O)[C@H](Cc1ccccc1)NC(=O)[C@H](Cc1ccccc1)NC(=O)[C@@H](C)NC(=O)[C@@H](N)Cc1ccc(O)cc1)C(N)=O [TAPPV, Tyr-D-Ala-Phe-Phe-Val-NH2] showed a Ki (mDOR-1) of 426 ± 23 nM.
For Buprenorphine, the “MOR-1 Variants required for analgesia” value (MOR-1 variants (Oprm1)) is listed as 7TM + 6TM.
